In the library only some 0.73% were active in any assay of this set; here they are far more common.
E-selectin induc: E-selectin induction in HUVECs, primary screen, imaging, HUVEC, immunofluorescence imaging, single point; normalized: neutral wells 0, TNF-alpha wells 100; activation, % at 7.58 µM; 260,000 compounds, 0.37% hits; AID 686992, 2013;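 active = mean E-selectin-positive cell signal at least 10% of the positive control, reached in at least 60% of replicates, without over 20% cell loss; inconclusive = no rule given, readout overlaps actives, possibly toxicity-flagged; inactive = the rest, including those meeting only one limit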
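Read-out basis: % PE-positive cells; Test system: HUVEC primary endothelial cells; Technique: immunofluorescence imaging; Dosing: single-point compound dose.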
Xi reactivation: activators of inactive X chromosome reactivation, primary screen, imaging, XiGFP fibroblasts, GFP high-content imaging, set 2; activation, % at 7.58 µM; AID 743238, 2013; XiGFP mouse fibroblasts, % GFP-positive cells imaging, 3 d; cells co-treated with 5-aza-dC sensitizer; scaled so ellipticine positive control = 100%; 360,000 compounds, 0.055% hits;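 active = mean normalized replicate activation at least 10% and every replicate at or above 10%; inconclusive = only one of the two criteria met; inactive = mean below 10% and not all replicates reach 10%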
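Assay system – SV40-immortalized XiGFP fibroblast cells, line 68-5-11 · Buffer or medium – DMEM supplemented with 5-aza-dC as sensitizing agent · Dosing – one concentration, pinned · Benchmarks – positive control ellipticine, 6 µM final · Times – 3 days compound exposure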
UUG fidelity: modulators of start codon recognition fidelity in yeast; AID 602363; activity score, % at 18.7 µM; S. cerevisiae UUG-firefly luciferase reporter, luminescence/redox ratio; actives 0.13% (n = 350,000);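 active = replicate mean at a twofold rise or more, about +100% in these data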;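 note: firefly luciferase made from a UUG start codon reports start codon fidelity; reporter light over untreated wells divided by growth signal over untreated wells; some hits fall short of that in this replicate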
RAD54 inh: inhibitors of human RAD54 branch migration, primary screen, biochemical, fluorescence, single point | RAD54 Holliday junction branch migration, FAM/BHQ fluorescence | inhibition, % at 10.4 µM | 360,000 compounds, 0.14% hits | AID 602329, 2012;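 active = mean normalized replicate activity at least 40 and at least half of replicates scoring 40 or more; inconclusive = only one of the two criteria met; inactive = mean below 40 and under half of replicates reaching 40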;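 also: inhibitors cause a drop in the FAM fluorescence signal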
RAD52 anneal inh: RAD52 DNA annealing inhibitors, primary screen, biochemical, FRET, single point, set 2. recombinant RAD52 DNA annealing, FRET fluorescence. AID 651710, 2012. 360,000 compounds, 0.46% hits. inhibition, % at 18.7 µM. DNA repair protein RAD52 homolog (Homo sapiens), P43351;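 active = every replicate showing at least 50% inhibition; inconclusive = mean inhibition at least 50% but not in every replicate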
Hits are given with their value; . = inactive; ? = inconclusive; / = no result given; ! = a repeat was not active.

The chains behind the UniProt entries cited, without tags or fusion partners.
DNA repair protein RAD52 homolog (Homo sapiens), P43351, UniProt P43351, whole entry, looked up: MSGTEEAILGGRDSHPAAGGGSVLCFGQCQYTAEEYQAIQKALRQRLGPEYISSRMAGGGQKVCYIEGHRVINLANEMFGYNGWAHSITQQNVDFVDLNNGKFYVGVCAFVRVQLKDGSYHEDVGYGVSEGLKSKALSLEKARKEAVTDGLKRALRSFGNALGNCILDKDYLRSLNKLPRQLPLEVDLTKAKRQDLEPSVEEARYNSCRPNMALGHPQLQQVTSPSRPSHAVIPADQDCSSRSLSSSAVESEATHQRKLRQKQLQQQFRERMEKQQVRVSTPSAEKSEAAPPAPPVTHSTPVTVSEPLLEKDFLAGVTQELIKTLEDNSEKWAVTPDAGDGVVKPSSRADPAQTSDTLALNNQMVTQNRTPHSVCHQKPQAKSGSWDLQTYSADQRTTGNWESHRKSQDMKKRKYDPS

SMILES | E-selectin induc | Xi reactivation | UUG fidelity | RAD54 inh | RAD52 anneal inh
Cc1[nH]c2ccccc2c1/C=N/Nc1ccc([N+](=O)[O-])cc1 | / | 75 | / | / | .
Cc1[nH]c2ccccc2c1/C=N/NC(=O)c1cccc(F)c1 | . | . | / | / | .
Cc1[nH]c2ccccc2c1/C=N/NC(=O)c1cccc([N+](=O)[O-])c1 | 57 | . | / | / | .
CCCNC(=O)N(C)C[C@H]1Oc2ncc(C#CC3CC3)cc2C(=O)N([C@H](C)CO)C[C@H]1C | . | . | . | . | .
O=c1cc(-c2ccccc2)oc2c1ccc1ccccc12 | / | / | / | / | .
O=c1cc(-c2cccnc2)oc2c1ccc1ccccc12 | / | . | . | 60 | .
CCCNC(=O)[C@H]1[C@H](CO)[C@H]2Cn3c(ccc(-c4ccncc4)c3=O)[C@@H]1N2Cc1ccccc1F | . | . | / | . | .
CC(C)NC(=O)Nc1ccc2c(c1)CC(=O)N([C@H](C)CO)C[C@H](C)[C@@H](CN(C)Cc1ccc(Oc3ccccc3)cc1)O2 | 37 | . | . | . | .
C[C@@H]1CN([C@@H](C)CO)C(=O)Cc2cc(NC(=O)c3ccncc3)ccc2O[C@H]1CN(C)Cc1ccc(Oc2ccccc2)cc1 | 313 | . | . | . | .
C[C@@H]1CN([C@@H](C)CO)C(=O)Cc2cc(NS(C)(=O)=O)ccc2O[C@H]1CN(C)Cc1ccncc1 | 440 | . | . | . | .
CC(C)NC(=O)Nc1ccc2c(c1)CC(=O)N([C@@H](C)CO)C[C@@H](C)[C@@H](CN(C)Cc1ccc(Oc3ccccc3)cc1)O2 | . | . | . | . | .
CC(C)NC(=O)Nc1ccc2c(c1)CC(=O)N([C@H](C)CO)C[C@@H](C)[C@H](CN(C)Cc1ccc(Oc3ccccc3)cc1)O2 | 45 | . | . | . | .
C[C@H]1CN([C@@H](C)CO)C(=O)Cc2cc(NS(C)(=O)=O)ccc2O[C@@H]1CN(C)Cc1ccc(Oc2ccccc2)cc1 | 169 | . | . | . | .
COc1ccc(NC(=O)N(C)C[C@H]2Oc3ccc(NC(=O)c4ccncc4)cc3CC(=O)N([C@H](C)CO)C[C@H]2C)cc1 | 42 | . | . | . | .
O=C(Nc1cccc(Cl)c1)N[C@H]1CC[C@@H](CCNC(=O)C2CCOCC2)O[C@@H]1CO | . | . | . | . | .
O=C(COC(=O)c1ccc(-c2ccc([N+](=O)[O-])cc2)o1)NC(=O)NC12CC3CC(CC(C3)C1)C2 | 149 | . | / | / | .
C[C@H]1CN([C@@H](C)CO)C(=O)c2cc(NC(=O)Nc3cccc4ccccc34)ccc2O[C@H]1CN(C)C(=O)Nc1cccc2ccccc12 | . | . | . | . | .
C[C@@H]1CN([C@H](C)CO)C(=O)c2cccc(NC(=O)Nc3ccc(C(F)(F)F)cc3)c2O[C@@H]1CN(C)S(=O)(=O)c1cccs1 | ? | . | . | . | .
COc1ccc(NC(=O)N(C)C[C@H]2Oc3c(NS(=O)(=O)c4cn(C)cn4)cccc3C(=O)N([C@H](C)CO)C[C@H]2C)cc1 | ? | . | . | . | .
COc1ccc(NC(=O)N(C)C[C@@H]2Oc3c(NS(=O)(=O)c4cn(C)cn4)cccc3C(=O)N([C@@H](C)CO)C[C@H]2C)cc1 | 28 | . | . | . | .
COc1ccc(S(=O)(=O)Nc2cccc3c2O[C@@H](CN(C)C(=O)Nc2c(C)noc2C)[C@H](C)CN([C@H](C)CO)C3=O)cc1 | . | . | . | . | .
COc1ccc(NC(=O)N(C)C[C@H]2Oc3c(NS(=O)(=O)c4cn(C)cn4)cccc3C(=O)N([C@@H](C)CO)C[C@@H]2C)cc1 | 39 | . | . | . | .
COc1ccc(S(=O)(=O)Nc2cccc3c2O[C@H](CN(C)C(=O)Nc2c(C)noc2C)[C@@H](C)CN([C@H](C)CO)C3=O)cc1 | 41! | . | . | . | .
C[C@H]1CN([C@@H](C)CO)C(=O)Cc2cc(NS(C)(=O)=O)ccc2O[C@@H]1CN(C)S(=O)(=O)c1ccccc1 | . | . | . | . | .
Cc1ccc(NC(=O)CC(=O)Nc2ccc(C)c(C)c2)cc1C | . | . | . | . | .
SMILES | E-selectin induc | Xi reactivation | UUG fidelity | RAD54 inh | RAD52 anneal inh
Cc1ccc(NCCCCO)cc1C | 142 | . | . | . | .
Cc1nc(NC(=O)CCl)sc1C(=O)N(C)C | . | . | / | / | .
Cc1nc(NC(=O)C(Cl)Cl)sc1C(=O)N(C)C | / | 12 | / | / | /
O=C(NC[C@H]1CC[C@H]2[C@H](CN2Cc2ccc(Oc3ccccc3)cc2)O1)C1CCOCC1 | / | / | / | / | .
C[C@@H]1CN([C@@H](C)CO)C(=O)CCCn2cc(nn2)CO[C@@H]1CN(C)C(=O)CCC(F)(F)F | . | . | / | / | /
NS(=O)(=O)c1cccc(-n2cnnn2)c1 | . | 40 | . | . | .
O=S(=O)(c1cccc(-n2cnnn2)c1)N1CCOCC1 | / | / | . | . | /
Cc1noc(C)c1NC(=O)N(C)C[C@@H]1OCCCC[C@@H](C)Oc2ccc(NS(C)(=O)=O)cc2C(=O)N([C@H](C)CO)C[C@H]1C | . | . | . | . | /
O=C(C1CCC1)N1CC2(C1)[C@@H](c1ccccc1)[C@@H](CO)N2Cc1ccc(Cl)cc1 | . | . | / | / | 67
C[C@@H]1CN([C@H](C)CO)C(=O)c2cc(NC(=O)Nc3ccccc3)ccc2O[C@@H](C)CCCCO[C@@H]1CN(C)Cc1ccc2c(c1)OCO2 | . | . | . | . | .
C[C@@H]1CN([C@H](C)CO)C(=O)c2cc(NC(=O)Nc3ccccc3)ccc2O[C@@H](C)CCCCO[C@H]1CN(C)Cc1ccc2c(c1)OCO2 | . | . | . | . | 61
C[C@H]1CCCCO[C@H](CN(C)Cc2ccc3c(c2)OCO3)[C@@H](C)CN([C@@H](C)CO)C(=O)c2cc(NC(=O)Nc3ccccc3)ccc2O1 | . | . | . | . | 56
C[C@@H]1CCCCO[C@@H](CN(C)Cc2ccc3c(c2)OCO3)[C@H](C)CN([C@@H](C)CO)C(=O)c2cc(NC(=O)Nc3ccc(C(F)(F)F)cc3)ccc2O1 | . | . | . | . | 51
C[C@@H]1CCCCO[C@@H](CN(C)Cc2ccc3c(c2)OCO3)[C@@H](C)CN([C@@H](C)CO)C(=O)c2cc(NC(=O)Nc3ccc(C(F)(F)F)cc3)ccc2O1 | . | . | . | . | .
C[C@@H]1CN([C@@H](C)CO)C(=O)c2cc(NC(=O)Nc3ccccc3)ccc2O[C@@H](C)CCCCO[C@@H]1CN(C)Cc1ccc2c(c1)OCO2 | . | . | . | . | .
O=C(C1CCCCC1)N1[C@@H](CO)[C@@H]2c3ccccc3N(S(=O)(=O)c3ccccc3)C[C@@H]21 | . | . | . | . | .
COc1ccc2c3c(n(C)c2c1)[C@@H](CO)N(S(=O)(=O)c1ccc(C)cc1)CC31CN(C(=O)c2ccccn2)C1 | . | . | / | / | .

Screening results as filed in PubChem BioAssay.
